Sequences of proteins named here, by UniProt entry; tags and fusion partners are left off. A change or cut given only in a name is not applied to a line headed by its entry. Residues count along the entry.
UniProt O95436: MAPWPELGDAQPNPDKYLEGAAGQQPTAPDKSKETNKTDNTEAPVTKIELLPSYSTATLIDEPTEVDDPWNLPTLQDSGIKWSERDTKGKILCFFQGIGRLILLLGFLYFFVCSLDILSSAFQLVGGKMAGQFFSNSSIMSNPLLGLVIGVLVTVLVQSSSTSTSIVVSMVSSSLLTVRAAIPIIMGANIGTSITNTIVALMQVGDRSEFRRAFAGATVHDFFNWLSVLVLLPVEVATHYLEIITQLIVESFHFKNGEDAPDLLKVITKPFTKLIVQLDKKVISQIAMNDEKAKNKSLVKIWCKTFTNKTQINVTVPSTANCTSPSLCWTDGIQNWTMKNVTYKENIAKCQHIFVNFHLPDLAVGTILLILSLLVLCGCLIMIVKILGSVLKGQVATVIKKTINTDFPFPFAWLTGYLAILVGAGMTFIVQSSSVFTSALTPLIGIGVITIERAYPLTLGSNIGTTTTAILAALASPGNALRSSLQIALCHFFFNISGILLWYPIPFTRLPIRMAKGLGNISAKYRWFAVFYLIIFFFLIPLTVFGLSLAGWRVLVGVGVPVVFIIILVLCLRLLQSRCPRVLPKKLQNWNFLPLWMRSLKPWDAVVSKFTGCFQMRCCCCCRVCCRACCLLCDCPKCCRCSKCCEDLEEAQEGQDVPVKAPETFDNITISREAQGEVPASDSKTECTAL
UniProt P08922, 1883-2347 limits assumed: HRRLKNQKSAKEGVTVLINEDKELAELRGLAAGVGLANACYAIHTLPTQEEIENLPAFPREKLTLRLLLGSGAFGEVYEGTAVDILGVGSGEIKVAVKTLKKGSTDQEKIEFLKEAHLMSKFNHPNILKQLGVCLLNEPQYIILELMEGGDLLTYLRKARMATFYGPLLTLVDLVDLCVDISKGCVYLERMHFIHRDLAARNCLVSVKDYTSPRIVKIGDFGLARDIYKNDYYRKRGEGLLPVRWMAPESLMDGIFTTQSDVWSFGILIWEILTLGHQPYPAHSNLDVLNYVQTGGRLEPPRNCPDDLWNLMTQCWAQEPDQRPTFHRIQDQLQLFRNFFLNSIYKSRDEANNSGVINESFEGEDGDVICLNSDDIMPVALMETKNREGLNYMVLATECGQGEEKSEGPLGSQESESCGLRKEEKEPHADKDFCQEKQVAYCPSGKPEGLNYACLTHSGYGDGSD

In publication PMC3873281, “Discovery and Preclinical Characterization of Novel Small Molecule TRK and ROS1 Tyrosine Kinase Inhibitors for the Treatment of Cancer and Inflammation” (PLoS ONE, 2013):

Target: ROS1 (SLC34A2:ROS1 fusion) (Homo sapiens, UniProt O95436+P08922)
Experiment: ROS1 phosphorylation in HCC78 cells, immunoblot
Conditions: 100 nM

Structure (SMILES): C[C@@H](Oc1cc(-c2cnn(C3CCNCC3)c2)cnc1N)c1c(Cl)ccc(F)c1Cl [crizotinib]
- time of treatment at which ROS1 phosphorylation was inhibited: 6 days
